Test results taken from patent US11103510B2, “JAK1 pathway inhibitors for the treatment of cytokine-related disorders” (Incyte Corporation, priority 2018, dated 2021).

Molecular target: human JAK1 (a.a. 837-1142) (Homo sapiens, UniProt P23458)
Assay: In vitro JAK kinase assay (HTRF), JAK1
Format: biochemical
Conditions: 1 mM ATP

IC50: < 10 nM
SMILES: CN(C)Cc1cc(F)cc(OC2CCN(CC(CC#N)n3cc(-c4ncnc5[nH]ccc45)cn3)CC2)c1 (single isomer, unassigned) [Compound 14, 4-(4-{3-[(dimethylamino)methyl]-5-fluorophenoxy}piperidin-1-yl)-3-[4-(7H-pyrrolo[2,3-d]pyrimidin-4-yl)-1H-pyrazol-1-yl]butanenitrile]
